From publication PMC2936744 (PLoS Pathogens, 2010) come the findings set out here.

Where two headings read alike, the source gives them in different places. Bounds are passed on as bounds.

The subject of test [1] is HCVcc-1a/2a-Rluc. The experiment in a line: microbe, parasite or virus in culture. Format: cell-based, hepatitis C virus. The conditions noted are these: read-out: EC50 of the individual inhibitor in combination experiments.
In test [2] the test system is pseudovirus with MLV envelope proteins. In kind it is cell-based.
Another test has as its system genotype 1b HCVpp. The experiment in a line: microbe, parasite or virus in culture. Format: cell-based. To be noted: Hepatitis C virus.
The subject of test [3] is HCVcc-1a/2a-Rluc. Kind of test: microbe, parasite or virus in culture. Format: cell-based. To be noted: Hepatitis C virus, Huh7.5, 72 h, read-out: EC50 HCVcc-1a/2a-Rluc.
Another test relates to HCVcc-1b/2a-Rluc. Kind of test: microbe, parasite or virus in culture. To be noted: Hepatitis C virus, Huh7.5, 72 h, read-out: EC50 HCVcc-1b/2a-Rluc. In kind it is cell-based.
The test system of a further test is HCVcc-2a/2a-Rluc. The experiment in a line: microbe, parasite or virus in culture. In kind it is cell-based. To be noted: Hepatitis C virus, Huh7.5, 72 h, read-out: EC50 HCVcc-2a/2a-Rluc.
Test [4] relates to genotype 1a HCV replicons. Format: cell-based, hepatitis C virus genotype 1a.
Test [5] has as its system genotype 1b HCV replicons. Format: cell-based, hepatitis C virus genotype 1b.
For a further test, the system named is Influenza virus. The experiment in a line: microbe, parasite or virus in culture. To be noted: unidentified influenza virus, MDCK, read-out: EC50 Influenza virus.

`COC(=O)N[C@H](C(=O)N1CCC[C@H]1c1nc(-c2ccc(-c3ccc(-c4c[nH]c([C@@H]5CCCN5C(=O)[C@@H](NC(=O)OC)C(C)C)n4)cc3)cc2)c[nH]1)C(C)C` [BMS-790052, reference compound]: the EC50 with HCVcc-1a/2a-Rluc [1] (Hepatitis C virus) came out at 0.021 nM.

On to `CCCCCNc1nc(Nc2ccc([N+](=O)[O-])cc2)nc(OCC(F)(F)F)n1` [EI-1, N ^2-(4-nitrophenyl)-N ^4-pentyl-6-(2,2,2-trifluoroethoxy)-1,3,5-triazine-2,4-diamine], for which the “inhibition of pseudovirus with MLV envelope proteins (in words)” value in test [2] is “not inhibited”. The EC50 in the test on genotype 1b HCVpp (read-out: EC50 range, genotype 1b HCVpp) is 5 to 200 nM; in the test on genotype 1b HCVpp (read-out: median EC50, genotype 1b HCVpp), 27 nM; with HCVcc-1a/2a-Rluc [3] it was 24 nM; in the test on HCVcc-1b/2a-Rluc, 12 nM; in the test on HCVcc-2a/2a-Rluc, 50.1 µM; in the test on HCVcc-1a/2a-Rluc [1] (Hepatitis C virus), 39 nM. Besides, the EC50 was 29 nM in the test on HCVcc-1a/2a-Rluc [1] and above 50 µM in the test on Influenza virus. In test [4], the “inhibition of genotype 1a HCV replicons (in words)” value was “no inhibition”. The “inhibition of genotype 1b HCV replicons (in words)” value in test [5] was “no inhibition”. The molecule also had an average infected cells/focus with HCVcc-1a/2a of 6 infected cells/focus.
